Measurements published in PMC12154458, “High-Throughput Screens of Repurposing Hub and DOS Chemical Libraries Reveal Compounds with Novel and Potent Inhibitory Activity Against the Essential Non-Neuronal Acetylcholinesterase of Schistosoma mansoni (SmTAChE)” (International Journal of Molecular Sciences, 2025).

Chains of the proteins cited; added tags and fusions are not shown. Residues count along the entry.
UniProt P22303, 32-614: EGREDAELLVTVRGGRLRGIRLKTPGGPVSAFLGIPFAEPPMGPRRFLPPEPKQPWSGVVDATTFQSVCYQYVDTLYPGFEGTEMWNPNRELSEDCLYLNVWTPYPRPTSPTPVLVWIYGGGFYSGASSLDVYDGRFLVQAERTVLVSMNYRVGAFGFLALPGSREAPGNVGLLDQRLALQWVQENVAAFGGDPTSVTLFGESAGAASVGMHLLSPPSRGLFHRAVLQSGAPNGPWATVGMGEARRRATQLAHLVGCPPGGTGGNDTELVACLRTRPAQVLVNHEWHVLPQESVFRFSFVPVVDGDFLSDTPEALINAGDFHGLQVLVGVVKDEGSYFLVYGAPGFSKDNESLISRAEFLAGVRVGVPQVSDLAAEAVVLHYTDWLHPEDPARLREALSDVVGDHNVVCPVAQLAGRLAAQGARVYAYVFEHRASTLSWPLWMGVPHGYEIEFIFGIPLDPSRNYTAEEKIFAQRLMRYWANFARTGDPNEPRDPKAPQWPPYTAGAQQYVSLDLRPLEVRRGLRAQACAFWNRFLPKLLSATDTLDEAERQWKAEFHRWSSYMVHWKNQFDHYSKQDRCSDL
UniProt A0A3Q0KMM5, 27-661 limits assumed: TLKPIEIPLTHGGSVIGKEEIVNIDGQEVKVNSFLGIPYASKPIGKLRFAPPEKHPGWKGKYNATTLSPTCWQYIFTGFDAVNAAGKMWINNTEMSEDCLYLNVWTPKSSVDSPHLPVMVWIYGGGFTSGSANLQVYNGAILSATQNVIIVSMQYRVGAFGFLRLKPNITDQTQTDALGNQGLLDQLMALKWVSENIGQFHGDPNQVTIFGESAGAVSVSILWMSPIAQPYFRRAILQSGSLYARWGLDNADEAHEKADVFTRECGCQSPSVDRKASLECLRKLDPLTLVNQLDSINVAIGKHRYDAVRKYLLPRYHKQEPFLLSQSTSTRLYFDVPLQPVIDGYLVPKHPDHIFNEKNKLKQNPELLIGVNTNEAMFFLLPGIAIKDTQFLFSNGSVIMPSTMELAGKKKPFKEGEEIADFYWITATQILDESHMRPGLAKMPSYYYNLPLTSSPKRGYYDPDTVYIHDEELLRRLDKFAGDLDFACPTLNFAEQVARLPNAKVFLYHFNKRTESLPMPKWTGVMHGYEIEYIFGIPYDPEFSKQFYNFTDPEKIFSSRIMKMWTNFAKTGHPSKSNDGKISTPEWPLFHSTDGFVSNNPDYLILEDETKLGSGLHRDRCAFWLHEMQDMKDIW

Assays:
[1] = biological target: recombinant human acetylcholinesterase, rHsAChE (Homo sapiens, UniProt P22303); type: biochemical
[2] = biological target: rSmTAChE (Schistosoma mansoni, UniProt A0A3Q0KMM5); type: biochemical;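 as to Inhibition (%) (Average): mostly 20 µM final but a few compounds at 5 or 10 µM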;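 as to Inhibition (%) Replicate A: mostly 20 µM final but a few compounds at 5 or 10 µM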;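 as to Inhibition (%) Replicate B: mostly 20 µM final but a few compounds at 5 or 10 µM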

In the case of `O=C(NC(=O)c1c(F)cccc1F)Nc1cc(Cl)c(OC(F)(F)C(F)C(F)(F)F)cc1Cl` (stereo not shown) [Lufenuron, reference compound], the “SI (Sm/Hs)” value [1] is reported as 3.17.
For `CNC(=O)Oc1ccc2c(c1)[C@]1(C)CCN(C)[C@@H]1N2C` [Physostigmine salicylate, reference compound], the “Inhibition (%) (Average)” value [2] was 92.00%, the “Inhibition (%) Replicate A” value [2] was 91.52% and the “Inhibition (%) Replicate B” value [2] was 92.48%. The “rSmTAChE HTS Inhibition (Ave, %)” value ([2]; 20 µM) was 91.99%.
`CN(CCCCCCCCCCN(C)C(=O)Oc1cccc([N+](C)(C)C)c1)C(=O)Oc1cccc([N+](C)(C)C)c1` [Demecarium bromide, reference compound] was tested, and the “SI (Sm/Hs)” value [1] was 531.20 and the “fold greater potency for HsAChE versus SmTAChE” value [1] was 531 fold.
For `CNC(=O)Oc1ccc2c(c1)[C@]1(C)CCN(C)[C@@H]1N2C` [Physostigmine sulfate, reference compound], the “Inhibition (%) (Average)” value [2] was 106.08%, the “Inhibition (%) Replicate A” value [2] was 98.42% and the “Inhibition (%) Replicate B” value [2] was 113.74%.

Counter-ions that a name gives are not always drawn.
